In PMC12207880 (The Oncologist, 2025):
Where two headings read alike, the source gives them in different places.

Test system: patients with advanced solid tumors

Cc1nc2c(F)cc(-c3nc(Nc4ccc5c(n4)CCN(CCN(C)C)C5)ncc3F)cc2n1C1CC1
4 (100) n (%): All TRAEs, Grade All (300 mg QD, N = 4)
3 (100) n (%): All TRAEs, Grade All (50 mg QD, N = 3) | All TRAEs, Grade All (100 mg QD, N = 3) | All TRAEs, Grade All (200 mg QD, N = 3) | Lymphocyte count decreased, Grade All (200 mg QD, N = 3)
0 n (%): Abdominal pain, Grade All (50 mg QD, N = 3) | Abdominal pain, Grade ≥3 (50 mg QD, N = 3) | Alanine aminotransferase increased, Grade All (50 mg QD, N = 3) | Alanine aminotransferase increased, Grade ≥3 (50 mg QD, N = 3) | Alkaline phosphatase increased, Grade ≥3 (50 mg QD, N = 3) | Appetite decreased, Grade All (50 mg QD, N = 3) | Appetite decreased, Grade ≥3 (50 mg QD, N = 3) | Aspartate aminotransferase increased, Grade All (50 mg QD, N = 3) | Aspartate aminotransferase increased, Grade ≥3 (50 mg QD, N = 3) | Blood creatinine increased, Grade All (50 mg QD, N = 3) | Blood creatinine increased, Grade ≥3 (50 mg QD, N = 3) | Blood lactic dehydrogenase increased, Grade All (50 mg QD, N = 3) | Blood lactic dehydrogenase increased, Grade ≥3 (50 mg QD, N = 3) | Diarrhoea, Grade ≥3 (50 mg QD, N = 3) | Dizziness, Grade ≥3 (50 mg QD, N = 3) | Electrocardiogram QT prolonged, Grade All (50 mg QD, N = 3) | Electrocardiogram QT prolonged, Grade ≥3 (50 mg QD, N = 3) | Fatigue, Grade All (50 mg QD, N = 3) | Fatigue, Grade ≥3 (50 mg QD, N = 3) | Haematuria, Grade ≥ 3 (50 mg QD, N = 3) | Hypoalbuminemia, Grade All (50 mg QD, N = 3) | Hypoalbuminemia, Grade ≥3 (50 mg QD, N = 3) | Hypokalaemia, Grade All (50 mg QD, N = 3) | Hypokalaemia, Grade ≥3 (50 mg QD, N = 3) | Hyponatraemia, Grade All (50 mg QD, N = 3) | Hyponatraemia, Grade ≥3 (50 mg QD, N = 3) | Leucocyte count decreased, Grade ≥3 (50 mg QD, N = 3) | Nausea, Grade All (50 mg QD, N = 3) | Nausea, Grade ≥3 (50 mg QD, N = 3) | Neutrophil count decreased, Grade ≥3 (50 mg QD, N = 3) | Platelet count decreased, Grade ≥3 (50 mg QD, N = 3) | Rash, Grade ≥3 (50 mg QD, N = 3) | Vomiting, Grade All (50 mg QD, N = 3) | Vomiting, Grade ≥3 (50 mg QD, N = 3) | γ-glutamyl transpeptidase increased, Grade ≥3 (50 mg QD, N = 3) | Abdominal pain, Grade All (100 mg QD, N = 3) | Abdominal pain, Grade ≥3 (100 mg QD, N = 3) | Alanine aminotransferase increased, Grade All (100 mg QD, N = 3) | Alanine aminotransferase increased, Grade ≥3 (100 mg QD, N = 3) | Alkaline phosphatase increased, Grade ≥3 (100 mg QD, N = 3) | All TRAEs, Grade ≥3 (100 mg QD, N = 3) | Anaemia, Grade ≥3 (100 mg QD, N = 3) | Appetite decreased, Grade All (100 mg QD, N = 3) | Appetite decreased, Grade ≥3 (100 mg QD, N = 3) | Aspartate aminotransferase increased, Grade All (100 mg QD, N = 3) | Aspartate aminotransferase increased, Grade ≥3 (100 mg QD, N = 3) | Blood creatinine increased, Grade ≥3 (100 mg QD, N = 3) | Blood lactic dehydrogenase increased, Grade All (100 mg QD, N = 3) | Blood lactic dehydrogenase increased, Grade ≥3 (100 mg QD, N = 3) | Diarrhoea, Grade ≥3 (100 mg QD, N = 3) | Dizziness, Grade All (100 mg QD, N = 3) | Dizziness, Grade ≥3 (100 mg QD, N = 3) | Electrocardiogram QT prolonged, Grade ≥3 (100 mg QD, N = 3) | Fatigue, Grade All (100 mg QD, N = 3) | Fatigue, Grade ≥3 (100 mg QD, N = 3) | Haematuria, Grade ≥ 3 (100 mg QD, N = 3) | Hypoalbuminemia, Grade All (100 mg QD, N = 3) | Hypoalbuminemia, Grade ≥3 (100 mg QD, N = 3) | Hypokalaemia, Grade All (100 mg QD, N = 3) | Hypokalaemia, Grade ≥3 (100 mg QD, N = 3) | Hyponatraemia, Grade All (100 mg QD, N = 3) | Hyponatraemia, Grade ≥3 (100 mg QD, N = 3) | Leucocyte count decreased, Grade ≥3 (100 mg QD, N = 3) | Lymphocyte count decreased, Grade ≥3 (100 mg QD, N = 3) | Nausea, Grade All (100 mg QD, N = 3) | Nausea, Grade ≥3 (100 mg QD, N = 3) | Neutrophil count decreased, Grade ≥3 (100 mg QD, N = 3) | Platelet count decreased, Grade All (100 mg QD, N = 3) | Platelet count decreased, Grade ≥3 (100 mg QD, N = 3) | Rash, Grade All (100 mg QD, N = 3) | Rash, Grade ≥3 (100 mg QD, N = 3) | Vomiting, Grade All (100 mg QD, N = 3) | Vomiting, Grade ≥3 (100 mg QD, N = 3) | γ-glutamyl transpeptidase increased, Grade ≥3 (100 mg QD, N = 3) | Abdominal pain, Grade All (200 mg QD, N = 3) | Abdominal pain, Grade ≥3 (200 mg QD, N = 3) | Alanine aminotransferase increased, Grade All (200 mg QD, N = 3) | Alanine aminotransferase increased, Grade ≥3 (200 mg QD, N = 3) | Alkaline phosphatase increased, Grade All (200 mg QD, N = 3) | Alkaline phosphatase increased, Grade ≥3 (200 mg QD, N = 3) | Anaemia, Grade ≥3 (200 mg QD, N = 3) | Appetite decreased, Grade ≥3 (200 mg QD, N = 3) | Aspartate aminotransferase increased, Grade All (200 mg QD, N = 3) | Aspartate aminotransferase increased, Grade ≥3 (200 mg QD, N = 3) | Blood creatinine increased, Grade All (200 mg QD, N = 3) | Blood creatinine increased, Grade ≥3 (200 mg QD, N = 3) | Blood lactic dehydrogenase increased, Grade All (200 mg QD, N = 3) | Blood lactic dehydrogenase increased, Grade ≥3 (200 mg QD, N = 3) | Diarrhoea, Grade ≥3 (200 mg QD, N = 3) | Dizziness, Grade All (200 mg QD, N = 3) | Dizziness, Grade ≥3 (200 mg QD, N = 3) | Electrocardiogram QT prolonged, Grade ≥3 (200 mg QD, N = 3) | Fatigue, Grade All (200 mg QD, N = 3) | Fatigue, Grade ≥3 (200 mg QD, N = 3) | Haematuria, Grade All (200 mg QD, N = 3) | Haematuria, Grade ≥ 3 (200 mg QD, N = 3) | Hypoalbuminemia, Grade ≥3 (200 mg QD, N = 3) | Hypokalaemia, Grade All (200 mg QD, N = 3) | Hypokalaemia, Grade ≥3 (200 mg QD, N = 3) | Hyponatraemia, Grade ≥3 (200 mg QD, N = 3) | Leucocyte count decreased, Grade ≥3 (200 mg QD, N = 3) | Nausea, Grade ≥3 (200 mg QD, N = 3) | Neutrophil count decreased, Grade ≥3 (200 mg QD, N = 3) | Platelet count decreased, Grade All (200 mg QD, N = 3) | Platelet count decreased, Grade ≥3 (200 mg QD, N = 3) | Rash, Grade All (200 mg QD, N = 3) | Rash, Grade ≥3 (200 mg QD, N = 3) | Vomiting, Grade All (200 mg QD, N = 3) | Vomiting, Grade ≥3 (200 mg QD, N = 3) | γ-glutamyl transpeptidase increased, Grade All (200 mg QD, N = 3) | γ-glutamyl transpeptidase increased, Grade ≥3 (200 mg QD, N = 3) | Abdominal pain, Grade ≥3 (300 mg QD, N = 4) | Alanine aminotransferase increased, Grade All (300 mg QD, N = 4) | Alanine aminotransferase increased, Grade ≥3 (300 mg QD, N = 4) | Alkaline phosphatase increased, Grade All (300 mg QD, N = 4) | Alkaline phosphatase increased, Grade ≥3 (300 mg QD, N = 4) | Anaemia, Grade ≥3 (300 mg QD, N = 4) | Appetite decreased, Grade ≥3 (300 mg QD, N = 4) | Aspartate aminotransferase increased, Grade All (300 mg QD, N = 4) | Aspartate aminotransferase increased, Grade ≥3 (300 mg QD, N = 4) | Blood creatinine increased, Grade ≥3 (300 mg QD, N = 4) | Blood lactic dehydrogenase increased, Grade All (300 mg QD, N = 4) | Blood lactic dehydrogenase increased, Grade ≥3 (300 mg QD, N = 4) | Diarrhoea, Grade ≥3 (300 mg QD, N = 4) | Dizziness, Grade All (300 mg QD, N = 4) | Dizziness, Grade ≥3 (300 mg QD, N = 4) | Electrocardiogram QT prolonged, Grade All (300 mg QD, N = 4) | Electrocardiogram QT prolonged, Grade ≥3 (300 mg QD, N = 4) | Fatigue, Grade All (300 mg QD, N = 4) | Fatigue, Grade ≥3 (300 mg QD, N = 4) | Haematuria, Grade ≥ 3 (300 mg QD, N = 4) | Hypoalbuminemia, Grade ≥3 (300 mg QD, N = 4) | Hypokalaemia, Grade All (300 mg QD, N = 4) | Hypokalaemia, Grade ≥3 (300 mg QD, N = 4)
1 (33.3) n (%): Alkaline phosphatase increased, Grade All (50 mg QD, N = 3) | Anaemia, Grade ≥3 (50 mg QD, N = 3) | Diarrhoea, Grade All (50 mg QD, N = 3) | Haematuria, Grade All (50 mg QD, N = 3) | Leucocyte count decreased, Grade All (50 mg QD, N = 3) | Lymphocyte count decreased, Grade All (50 mg QD, N = 3) | Lymphocyte count decreased, Grade ≥3 (50 mg QD, N = 3) | Neutrophil count decreased, Grade All (50 mg QD, N = 3) | Platelet count decreased, Grade All (50 mg QD, N = 3) | Rash, Grade All (50 mg QD, N = 3) | γ-glutamyl transpeptidase increased, Grade All (50 mg QD, N = 3) | Alkaline phosphatase increased, Grade All (100 mg QD, N = 3) | Anaemia, Grade All (100 mg QD, N = 3) | Blood creatinine increased, Grade All (100 mg QD, N = 3) | Haematuria, Grade All (100 mg QD, N = 3) | Leucocyte count decreased, Grade All (100 mg QD, N = 3) | Lymphocyte count decreased, Grade All (100 mg QD, N = 3) | Neutrophil count decreased, Grade All (100 mg QD, N = 3) | γ-glutamyl transpeptidase increased, Grade All (100 mg QD, N = 3) | All TRAEs, Grade ≥3 (200 mg QD, N = 3) | Appetite decreased, Grade All (200 mg QD, N = 3) | Diarrhoea, Grade All (200 mg QD, N = 3) | Electrocardiogram QT prolonged, Grade All (200 mg QD, N = 3) | Hyponatraemia, Grade All (200 mg QD, N = 3) | Leucocyte count decreased, Grade All (200 mg QD, N = 3) | Lymphocyte count decreased, Grade ≥3 (200 mg QD, N = 3) | Nausea, Grade All (200 mg QD, N = 3) | Neutrophil count decreased, Grade All (200 mg QD, N = 3)
2 (66.7) n (%): All TRAEs, Grade ≥3 (50 mg QD, N = 3) | Anaemia, Grade All (50 mg QD, N = 3) | Dizziness, Grade All (50 mg QD, N = 3) | Diarrhoea, Grade All (100 mg QD, N = 3) | Electrocardiogram QT prolonged, Grade All (100 mg QD, N = 3) | Anaemia, Grade All (200 mg QD, N = 3) | Hypoalbuminemia, Grade All (200 mg QD, N = 3)
3 (75.0) n (%): Abdominal pain, Grade All (300 mg QD, N = 4) | Diarrhoea, Grade All (300 mg QD, N = 4)
2 (50.0) n (%): Anaemia, Grade All (300 mg QD, N = 4)
1 (25.0) n (%): All TRAEs, Grade ≥3 (300 mg QD, N = 4) | Appetite decreased, Grade All (300 mg QD, N = 4) | Blood creatinine increased, Grade All (300 mg QD, N = 4) | Haematuria, Grade All (300 mg QD, N = 4) | Hypoalbuminemia, Grade All (300 mg QD, N = 4)
